From ChEMBL document CHEMBL2346557, “VBP15: preclinical characterization of a novel anti-inflammatory delta 9,11 steroid” (Bioorg Med Chem, 2013)

Amino acid sequences for entries named in this document (tags omitted).
UniProt P08684, whole entry: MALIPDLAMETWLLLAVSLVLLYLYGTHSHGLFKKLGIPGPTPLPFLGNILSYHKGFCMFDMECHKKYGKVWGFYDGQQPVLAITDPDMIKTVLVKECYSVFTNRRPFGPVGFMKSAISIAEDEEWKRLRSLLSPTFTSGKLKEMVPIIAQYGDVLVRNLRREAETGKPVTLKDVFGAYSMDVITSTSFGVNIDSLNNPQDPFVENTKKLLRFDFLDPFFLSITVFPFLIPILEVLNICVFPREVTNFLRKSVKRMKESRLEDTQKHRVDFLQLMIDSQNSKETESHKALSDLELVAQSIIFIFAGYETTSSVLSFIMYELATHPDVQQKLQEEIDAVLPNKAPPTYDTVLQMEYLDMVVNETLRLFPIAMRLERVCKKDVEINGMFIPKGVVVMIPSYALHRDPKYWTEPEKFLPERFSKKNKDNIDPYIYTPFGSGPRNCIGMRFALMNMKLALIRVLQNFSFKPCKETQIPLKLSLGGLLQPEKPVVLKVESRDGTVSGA

Experiments:
Rattus norvegicus [1] = species: Rattus norvegicus; assay: Ratio of drug level in brain to plasma of rat at 0.25 hrs
Rattus norvegicus [2] = species: Rattus norvegicus; assay: Ratio of drug level in brain to plasma of rat at 4 hrs
CYP3A4 = CYP3A4 (Homo sapiens, UniProt P08684); assay: Inhibition of CYP3A4 (unknown origin) at 10 mM relative to control; format: ADME
Rattus norvegicus [3] = species: Rattus norvegicus; assay: Ratio of drug level in brain to plasma of rat at 1 hr
Rattus norvegicus [4] = species: Rattus norvegicus; assay: Ratio of drug level in brain to plasma of rat at 0.5 hrs
Rattus norvegicus [5] = species: Rattus norvegicus; assay: Ratio of drug level in brain to plasma of rat at 8 hrs
Rattus norvegicus [6] = species: Rattus norvegicus; assay: Ratio of drug level in brain to plasma of rat at 6 hrs
Rattus norvegicus [7] = species: Rattus norvegicus; assay: Ratio of drug level in brain to plasma of rat at 2 hrs

C[C@@H]1C[C@H]2[C@@H]3CCC4=CC(=O)C=C[C@]4(C)C3=CC[C@]2(C)[C@@]1(O)C(=O)CO [VAMOROLONE]
BPR (Rattus norvegicus [1]): 0.648
BPR (Rattus norvegicus [2]): 0.583
inhibition at 10000 µM (CYP3A4): 15.3%
BPR (Rattus norvegicus [3]): 0.614
BPR (Rattus norvegicus [4]): 0.62
BPR (Rattus norvegicus [5]): 0.433
BPR (Rattus norvegicus [6]): 0.581
BPR (Rattus norvegicus [7]): 0.593
